Two molecules from paper PMC3078584 can be followed below.

Like-named read-outs stand apart in the source and are kept apart here.

Common to all, as to test: fluorescence polarisation
On the technique in general: In fluorescence polarisation assays a small probe gives low polarisation when free and higher when bound to something large.

For experiment [1], the target named is T1, Labeled ZAP70 peptide 1, Flu-βA-TLNSDGpYTPEPA-CONH2.
T1 chain: TLNSDGYTPEPA

Experiment [2] has as its target T1, Labeled ZAP70 peptide 1, ….
Experiment [3] deals with T1, Labeled ZAP70 peptide 1, ….
In experiment [4] the target is T1, Labeled ZAP70 peptide 1, ….
Experiment [5] concerns the target T1, Labeled ZAP70 peptide 1, ….

B1: His-Cbl(TKB) (domain or fragment)
chain: MAGNVKKSSGAGGGSGSGGSGSGGLIGLMKDAFQPHHHHHHHLSPHPPGTVDKKMVEKCWKLMDKVVRLCQNPKLALKNSPPYILDLLPDTYQHLRTILSRYEGKMETLGENEYFRVFMENLMKKTKQTISLFKEGKERMYEENSQPRRNLTKLSLIFSHMLAELKGIFPSGLFQGDTFRITKADAAEFWRKAFGEKTIVPWKSFRQALHEVHPISSGLEAMALKSTIDLTCNDYISVFEFDIFTRLFQPWSSLLRNWNSLAVTHPGYMAFLTYDEVKARLQKFIHKPGSYIFRLSCTRLGQWAIGYVTADGNILQTIPHNKPLFQALIDGFREGFYLFPDGRNQNPDLTGLCEPTP
modifications: not checked
Usually Kd stands for the equilibrium constant for the complex coming apart. Low readings indicate a tighter complex, high ones a looser complex. Turning to B1, the Kd is 470 nM in experiment [1]; 520 nM in experiment [2]; 540 nM in experiment [3]; 410 nM in experiment [4]; 460 nM in experiment [5].

B2: GST-Cbl(TKB) (domain or fragment)
chain: MAGNVKKSSGAGGGSGSGGSGSGGLIGLMKDAFQPHHHHHHHLSPHPPGTVDKKMVEKCWKLMDKVVRLCQNPKLALKNSPPYILDLLPDTYQHLRTILSRYEGKMETLGENEYFRVFMENLMKKTKQTISLFKEGKERMYEENSQPRRNLTKLSLIFSHMLAELKGIFPSGLFQGDTFRITKADAAEFWRKAFGEKTIVPWKSFRQALHEVHPISSGLEAMALKSTIDLTCNDYISVFEFDIFTRLFQPWSSLLRNWNSLAVTHPGYMAFLTYDEVKARLQKFIHKPGSYIFRLSCTRLGQWAIGYVTADGNILQTIPHNKPLFQALIDGFREGFYLFPDGRNQNPDLTGLCEPTP
modifications: not checked
With B2, the Kd in experiment [1] was determined as 1200 nM.
